# Antibody variant affinities, Ab-14 light chain, assay B

The measurements come from Li et al. 2023 (doi:10.1038/s41467-023-39022-2) through the FLAb antibody collection.

Target peptide (SARS-CoV-2 spike, HR2 region): PDVDLGDISGINAS

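Phage display of a naive human antibody library on the peptide gave the parent. Designed CDR sequences, proposed from the first random library and measured here. Their group label is 14L_En_Gen (En: ensemble of fine-tuned language models; Gen: genetic algorithm). In AlphaSeq, yeast of one mating type display the scFv and yeast of the other type display the target. The frequency of each diploid, read from paired DNA barcodes, reflects how well the two displayed proteins bind. Scores were corrected for input abundance and mapped to Kd with protein pairs of known affinity run in the same pool. Each pool was mated in six replicate cultures.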

Parent: Ab-14, a human scFv built as VH, a (GGGGS)3 linker, VL. Only the CDRs of the light chain vary.
VH: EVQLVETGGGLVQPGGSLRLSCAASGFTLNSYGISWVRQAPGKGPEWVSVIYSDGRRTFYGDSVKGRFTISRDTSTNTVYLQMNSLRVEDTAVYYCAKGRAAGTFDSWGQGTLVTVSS
VL: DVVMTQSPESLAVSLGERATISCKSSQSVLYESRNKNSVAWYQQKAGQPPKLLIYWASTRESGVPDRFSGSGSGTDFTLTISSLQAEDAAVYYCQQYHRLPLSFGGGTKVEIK

The parent's light chain CDRs are KSSQSVLYESRNKNSVA, WASTRES, QQYHRLPLS; each variant's own CDRs replace them letter for letter. Values are log10 of the apparent Kd in nM; lower means stronger binding. An entry "nd" has no value in the source: the pair was not observed among the diploids in that replicate. This suggests poor binding but is not conclusive. A sequence measured in both rounds can read differently, since the two assays cover different ranges.

| CDR-L1 | CDR-L2 | CDR-L3 | log10 Kd (nM) by replicate | control signals |
|---|---|---|---|---|
| KVSEFMRGLTQRKDSIA | DNVTRNN | QQYDRLPLS | nd nd nd nd nd nd | 0 of 18 |
| TIGQTLMIGVRNRSNVA | EVSERLN | QQYDRLPLM | 1.34 1.82 1.31 2.69 2.03 1.89 | 0 of 18 |
| MLSMVTEGMRRKHNSVA | DNSTREP | QQYDRLPLS | 2.18 2.43 nd nd nd nd | 1 of 18 (1.70) |
| MVTQMAMTGMTNKRSVA | NAEMREK | QQYHRLPLI | 0.53 0.38 0.37 0.09 0.36 0.54 | 0 of 18 |
| MISQLMNMGTFAINSVA | QATIRNE | QQYDRLPLQ | 2.33 2.14 1.68 2.54 2.23 2.36 | 1 of 18 (2.39) |
| KLSEFMRGLMGRKDSIA | DNNTRGA | QQYDRLPLS | nd nd nd nd nd 1.81 | 0 of 18 |
| TISGVMQQMTHSKNNVA | EVSMRLD | QQYFRLPLE | 1.26 1.59 1.05 1.17 2.42 1.80 | 0 of 18 |
| MISMNIWGEYRNRDNVA | HASNREN | QCYDRLPLS | 1.02 1.79 0.87 2.02 1.84 2.33 | 0 of 18 |
| KLSMITGHMSMAKDNVA | EMVTREK | QQYNRLPLS | 0.35 -0.09 0.00 0.11 0.01 -0.07 | 0 of 18 |
| MIAQMMGWESNKIHSVA | QANLRED | QQYDRLPLE | 2.45 1.06 1.12 1.29 1.55 1.57 | 1 of 18 (2.90) |
| TISQLYNMGSFAINSVA | QASERNE | QQYDRLPLI | 0.85 1.24 1.29 0.80 0.55 1.16 | 0 of 18 |
| MLSQMWAIGMKAKNSVA | QASMRFN | QQYDRLPLI | nd 1.00 2.69 3.19 nd 2.09 | 1 of 18 (2.22) |
| HITYGMMLYGRHSKSIA | QAEERAK | QQYDRLPLI | 0.85 0.93 0.98 1.08 1.27 1.21 | 0 of 18 |
| TISGVMQQMSHSKSNVA | EVSTRLD | QQYVRLPLA | 0.23 0.20 0.13 0.11 -0.14 0.22 | 2 of 18 (3.95) |
| MISQVMNTLTRHGNNVA | DLQEREE | QQYFRLPLS | 1.07 0.76 1.60 1.97 0.83 1.46 | 0 of 18 |
| IVSQLMIWGMHVKNSIA | EAEQRIN | QQYDRLPLF | nd nd nd nd nd 1.51 | 0 of 18 |
| IVSQLMLWGMHAKNSIA | EAETRLN | QQYERLPLF | 0.87 1.61 1.78 0.35 0.97 0.96 | 0 of 18 |
| KIGMTLNQLLHKKNNVA | DLVERET | QQYHRLPLS | 0.44 0.72 -0.10 0.08 -0.25 0.55 | 0 of 18 |
| KVSGFMRGLTQRKDSIA | DNNTRGS | QQYDRLPLS | 1.39 1.25 1.91 1.74 1.44 1.66 | 0 of 18 |
| IVSQLMLWGLHAKNSIA | EASTRLN | QQYDRLPLF | 1.54 nd nd 1.57 nd 1.22 | 0 of 18 |
| KIGATLNQMMHKKNNVA | DLVTREQ | QQYHRLPLS | 0.47 0.16 0.29 -0.10 0.29 0.31 | 2 of 18 (2.08) |
| KLSSYTGTEKVHGNNVA | EMETRER | QQYNRLPLA | 0.49 0.13 0.32 0.10 0.16 0.50 | 0 of 18 |
| TISQLMNMGQFAINSVA | QASLRNE | QQYDRLPLA | 1.75 2.10 1.05 0.57 0.68 1.00 | 0 of 18 |
| HMSFLTLQGQRHKNSVA | QMTTREN | QQYDHLPLS | 0.87 1.00 0.65 0.75 0.94 1.08 | 1 of 18 (5.06) |
| MMSQVTGSGTRHRNNVA | QTSMREI | QQYDRLPLI | 0.69 1.19 0.84 0.89 1.16 1.20 | 1 of 18 (2.17) |
| KISQMVRVGSTHSNSIA | EEATRAK | QQYHRLPLS | 0.77 0.48 0.41 0.66 0.49 0.51 | 0 of 18 |
| KVSEFMRGLMGRKDSIA | DNNTRSN | QQYDRLPLS | 1.77 1.20 1.16 1.74 1.67 1.74 | 3 of 18 (3.83) |
| MISQLMNMGQFAINSVA | QAEIRNA | QQYDRLPLA | nd 2.49 nd 1.39 2.01 nd | 0 of 18 |
| TIGGTLMYGMRNRSNVA | EVSQRLN | QQYDRLPLF | 1.12 0.58 1.34 1.35 0.96 1.54 | 1 of 18 (2.35) |
| IVSQLMLWGYHHKNSIA | EAQTRLN | QQYERLPLF | nd 3.94 nd nd nd nd | 2 of 18 (2.13) |
| TISQVMNTLTRHGNNVA | DLAEREQ | QQYFRLPLS | 0.85 0.90 0.57 0.33 0.75 0.63 | 0 of 18 |
| KLASVTGTEKVHGNNVA | EMETRER | QQYNRLPLA | 0.26 0.61 0.46 0.77 0.65 0.57 | 0 of 18 |
| HMSMITLGGMRARNSVA | QMTTREN | QQYDHLPLS | 1.51 0.92 0.88 1.76 0.86 nd | 0 of 18 |
| MISQLYNMGQFAINSVA | QASTRME | QQYHRLPLM | 0.27 -0.16 -0.33 0.16 -0.50 -0.15 | 0 of 18 |
| MMSQVTGQGQRHRNNVA | QTSVREP | QQYDRLPLI | 1.37 1.17 0.90 1.05 1.10 1.31 | 1 of 18 (3.30) |
| KVSEFMRGLMKMKDSIA | DNETRNS | QQYDRLPLS | 1.53 1.44 1.99 2.33 0.84 2.70 | 2 of 18 (2.83) |
| MISQLMNLGQFAINSVA | QASIRNE | QQYDRLPLT | nd 2.93 nd 1.55 nd nd | 0 of 18 |
| MISQVMNTLTRHGNNVA | DLEEREE | QQYFRLPLS | nd nd nd 1.18 1.37 1.60 | 0 of 18 |
| MMSQVTGQGQRHRNNVA | QTSTREE | QQYDRLPLI | 1.32 0.90 1.24 1.59 1.29 0.52 | 0 of 18 |
| KFSQMSNQFSVSMNAVA | EMSTRPE | QQYNRLPLS | -0.17 0.30 0.03 -0.07 0.07 0.27 | 0 of 18 |
| MISQLYNMGTFAINSVA | QASVRNA | QQYDRLPLM | 1.00 nd 0.26 0.84 1.41 1.24 | 0 of 18 |
| MISQLYNMGQFAINSVA | QASLRYN | QQYDRLPLM | nd nd nd nd nd nd | 0 of 18 |
| TISQVMNTLTRHGNNVA | DLQERES | QQYERLPLS | 2.12 1.38 1.14 1.21 1.30 1.12 | 0 of 18 |
| HMSMLTMMGMRQRNSVA | QMTMREN | QQYDRLPLM | 1.18 2.04 1.95 1.30 1.10 1.31 | 1 of 18 (2.52) |
| MMSQVTGLGTRHRNNVA | QTSTREP | QQYDRLPLV | 1.12 0.57 0.93 0.69 0.95 0.79 | 0 of 18 |
| KISYLQNQTFEESNNVA | EMVTREK | QQYNRLPLS | nd 4.52 2.31 2.17 2.42 nd | 1 of 18 (2.27) |
| KVSEFMRGLMQKTDSIA | DNVTRVN | QQYDRLPLS | 0.68 0.90 0.99 0.60 0.50 0.99 | 2 of 18 (2.98) |
| TISGVMTQMSHSKNNVA | EVSMRLD | QQYFRLPLE | 0.73 0.85 1.01 1.17 0.79 1.26 | 0 of 18 |
| KISQMVKVGSTHSNSIA | EEVTRAK | QQYHRLPLS | 0.65 0.81 0.90 0.70 0.63 0.86 | 2 of 18 (2.50) |
| MISNVMNTLTRYGNNVA | DLTEREE | QQYFRLPLS | 0.91 0.79 0.87 0.31 0.48 0.20 | 2 of 18 (2.09) |
| SLGLVTMLEYANRNNVA | NNSTREK | QQYDRLPLS | 1.09 1.23 1.57 0.95 1.46 1.09 | 0 of 18 |
| MVTQMAMTGMTNKRSVA | NATTREY | QQYHRLPLI | nd 2.01 0.89 2.13 1.18 1.22 | 0 of 18 |

A selection of 9 entries from above:

| CDR-L1 | CDR-L2 | CDR-L3 | log10 Kd (nM) by replicate | control signals |
|---|---|---|---|---|
| KISQMVKVGSTHSNSIA | EEVTRAK | QQYHRLPLS | 0.65 0.81 0.90 0.70 0.63 0.86 | 2 of 18 (2.50) |
| MISQLMNMGQFAINSVA | QAEIRNA | QQYDRLPLA | nd 2.49 nd 1.39 2.01 nd | 0 of 18 |
| TISGVMQQMTHSKNNVA | EVSMRLD | QQYFRLPLE | 1.26 1.59 1.05 1.17 2.42 1.80 | 0 of 18 |
| TISGVMTQMSHSKNNVA | EVSMRLD | QQYFRLPLE | 0.73 0.85 1.01 1.17 0.79 1.26 | 0 of 18 |
| MMSQVTGQGQRHRNNVA | QTSVREP | QQYDRLPLI | 1.37 1.17 0.90 1.05 1.10 1.31 | 1 of 18 (3.30) |
| MISQVMNTLTRHGNNVA | DLEEREE | QQYFRLPLS | nd nd nd 1.18 1.37 1.60 | 0 of 18 |
| MIAQMMGWESNKIHSVA | QANLRED | QQYDRLPLE | 2.45 1.06 1.12 1.29 1.55 1.57 | 1 of 18 (2.90) |
| KLSEFMRGLMGRKDSIA | DNNTRGA | QQYDRLPLS | nd nd nd nd nd 1.81 | 0 of 18 |
| MLSQMWAIGMKAKNSVA | QASMRFN | QQYDRLPLI | nd 1.00 2.69 3.19 nd 2.09 | 1 of 18 (2.22) |

In the paper, a design with two or fewer of six values counts as a poor binder. Background: pairings of all light chain designs with three empty control strains gave a value in 4% of cases (median 2.64, 5th percentile 1.59). Values in that range, when seen in few replicates, are hard to tell from nonspecific mating. The control count says in how many pairings with the empty strains this scFv gave a signal, with their mean in brackets.